Test results taken from US9809604B2, “DGAT1 inhibitor and preparation method and use thereof” (Qingdao Huanghai Pharmaceutical Co., Ltd., priority 2013, dated 2017).
Like-named read-outs stand apart in the source and are kept apart here.

Sequences of proteins named here, by UniProt entry; tags and fusion partners are left off.
UniProt O75907, whole entry: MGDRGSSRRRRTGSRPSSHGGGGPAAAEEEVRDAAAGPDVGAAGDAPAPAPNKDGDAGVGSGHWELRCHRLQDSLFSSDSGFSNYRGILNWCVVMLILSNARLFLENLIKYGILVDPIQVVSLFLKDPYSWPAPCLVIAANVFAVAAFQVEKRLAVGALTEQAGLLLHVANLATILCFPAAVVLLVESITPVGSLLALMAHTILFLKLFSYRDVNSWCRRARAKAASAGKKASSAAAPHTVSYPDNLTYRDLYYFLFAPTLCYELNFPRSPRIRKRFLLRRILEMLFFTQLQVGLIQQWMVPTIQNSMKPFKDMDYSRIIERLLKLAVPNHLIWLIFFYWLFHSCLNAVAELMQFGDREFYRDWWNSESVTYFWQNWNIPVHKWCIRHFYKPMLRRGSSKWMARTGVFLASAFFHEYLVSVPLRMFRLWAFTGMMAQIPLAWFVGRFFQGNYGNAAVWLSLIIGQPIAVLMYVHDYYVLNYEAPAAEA

Target: human DGAT1 (Homo sapiens, UniProt O75907)
Test: Human DGAT1 IC50 enzyme assay (Flashplate, 14C-labeled acyl-CoA)
Type: biochemical
[1] = read-out: hDGAT1 IC50(nM) Average, average of first and second
[2] = read-out: hDGAT1 IC50(nM) First, first determination
[3] = read-out: hDGAT1 IC50(nM) Second, second determination

Row | Compound | IC50 [1] [nM] | IC50 [2] [nM] | IC50 [3] [nM]
1 | COC(C)(C)Cn1cc(-c2c(C)cc(N3CCOc4ncnc(N)c4C3=O)cc2C)c(C)n1 | 91.7 | 104 | 79.1
2 | Cc1cc(N2CCOc3ncnc(N)c3C2=O)cc(C)c1-c1cn(CC(C)(F)F)nc1C | 38 | 46.1 | 29.8
